{
  "source": "patent US7879861B2",
  "about": "“Combi-molecules having EGFR and DNA targeting properties” (priority 2005, dated 2011)",
  "target": "EGFR (Homo sapiens, UniProt P00533)",
  "test": "Reversibility of EGFR autophosphorylation inhibition in MDA-MB-468 cells (washout, 8 h)",
  "format": "cell-based",
  "design": "EGF-induced EGFR autophosphorylation in MDA-MB-468 cells; endogenous in cells; host or cells: MDA-MB-468 (ATCC)",
  "data": [
    {"smiles": "Nc1ccc2ncnc(Nc3cccc(Br)c3)c2c1", "note": "[ZR01, reference compound]", "values": [
      {"measurement": "mode of EGFR inhibition (reversible / irreversible)", "value": "reversible inhibitor"},
      {"measurement": "EGF-dependent EGFR autophosphorylation immediately after drug exposure", "setting": "2 μM, 2 h", "value": "completely suppressed"}
    ]}
  ]
}
